By UniProt entry, the sequences of proteins in these tests, tags left out.
UniProt Q96SW2, whole entry: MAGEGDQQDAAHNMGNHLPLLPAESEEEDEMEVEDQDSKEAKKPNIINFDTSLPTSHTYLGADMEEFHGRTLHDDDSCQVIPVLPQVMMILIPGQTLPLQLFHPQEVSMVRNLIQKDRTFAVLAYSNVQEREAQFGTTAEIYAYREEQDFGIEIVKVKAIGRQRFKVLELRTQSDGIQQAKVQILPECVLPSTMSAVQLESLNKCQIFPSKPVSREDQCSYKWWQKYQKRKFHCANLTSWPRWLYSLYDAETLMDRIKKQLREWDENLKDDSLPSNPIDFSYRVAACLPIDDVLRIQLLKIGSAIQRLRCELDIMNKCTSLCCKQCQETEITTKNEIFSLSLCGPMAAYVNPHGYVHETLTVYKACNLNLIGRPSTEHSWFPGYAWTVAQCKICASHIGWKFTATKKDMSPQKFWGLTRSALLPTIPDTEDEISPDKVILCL
UniProt P15170, whole entry: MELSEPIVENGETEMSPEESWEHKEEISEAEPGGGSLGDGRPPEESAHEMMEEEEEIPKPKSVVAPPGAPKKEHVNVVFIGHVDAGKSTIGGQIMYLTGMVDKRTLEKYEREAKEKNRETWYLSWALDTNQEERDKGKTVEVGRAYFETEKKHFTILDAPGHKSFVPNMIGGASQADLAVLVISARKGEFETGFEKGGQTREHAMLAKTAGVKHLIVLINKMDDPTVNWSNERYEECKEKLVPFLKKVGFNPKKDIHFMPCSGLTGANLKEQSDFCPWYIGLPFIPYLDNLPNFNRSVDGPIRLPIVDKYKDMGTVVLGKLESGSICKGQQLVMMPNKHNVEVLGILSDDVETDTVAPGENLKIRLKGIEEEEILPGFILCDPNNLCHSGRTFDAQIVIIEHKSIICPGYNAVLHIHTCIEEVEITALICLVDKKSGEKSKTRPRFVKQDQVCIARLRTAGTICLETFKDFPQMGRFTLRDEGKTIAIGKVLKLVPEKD
UniProt Q9UKS7, whole entry: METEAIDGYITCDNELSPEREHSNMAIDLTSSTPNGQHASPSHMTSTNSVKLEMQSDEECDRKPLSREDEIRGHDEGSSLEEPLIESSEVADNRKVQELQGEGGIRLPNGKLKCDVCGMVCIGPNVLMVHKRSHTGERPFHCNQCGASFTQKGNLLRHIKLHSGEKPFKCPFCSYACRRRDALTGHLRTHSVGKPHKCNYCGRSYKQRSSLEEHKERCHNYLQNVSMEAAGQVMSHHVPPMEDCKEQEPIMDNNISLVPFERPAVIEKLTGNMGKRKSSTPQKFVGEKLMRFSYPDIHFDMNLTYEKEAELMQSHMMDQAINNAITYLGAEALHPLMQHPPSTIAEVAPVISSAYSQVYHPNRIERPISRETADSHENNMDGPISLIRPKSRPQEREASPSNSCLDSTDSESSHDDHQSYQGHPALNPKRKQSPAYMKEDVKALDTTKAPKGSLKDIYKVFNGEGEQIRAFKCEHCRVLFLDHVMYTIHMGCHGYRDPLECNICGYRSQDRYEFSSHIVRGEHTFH
UniProt P48729, whole entry: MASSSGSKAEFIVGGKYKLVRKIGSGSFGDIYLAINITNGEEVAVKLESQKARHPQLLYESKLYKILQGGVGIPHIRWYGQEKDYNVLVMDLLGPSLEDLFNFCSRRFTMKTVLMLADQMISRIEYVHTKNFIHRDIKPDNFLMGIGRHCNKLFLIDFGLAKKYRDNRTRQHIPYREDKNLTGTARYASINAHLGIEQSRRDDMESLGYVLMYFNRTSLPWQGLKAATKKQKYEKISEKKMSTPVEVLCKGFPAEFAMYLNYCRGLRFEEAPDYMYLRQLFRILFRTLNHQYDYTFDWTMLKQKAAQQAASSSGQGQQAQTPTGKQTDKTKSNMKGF
UniProt P30291, whole entry: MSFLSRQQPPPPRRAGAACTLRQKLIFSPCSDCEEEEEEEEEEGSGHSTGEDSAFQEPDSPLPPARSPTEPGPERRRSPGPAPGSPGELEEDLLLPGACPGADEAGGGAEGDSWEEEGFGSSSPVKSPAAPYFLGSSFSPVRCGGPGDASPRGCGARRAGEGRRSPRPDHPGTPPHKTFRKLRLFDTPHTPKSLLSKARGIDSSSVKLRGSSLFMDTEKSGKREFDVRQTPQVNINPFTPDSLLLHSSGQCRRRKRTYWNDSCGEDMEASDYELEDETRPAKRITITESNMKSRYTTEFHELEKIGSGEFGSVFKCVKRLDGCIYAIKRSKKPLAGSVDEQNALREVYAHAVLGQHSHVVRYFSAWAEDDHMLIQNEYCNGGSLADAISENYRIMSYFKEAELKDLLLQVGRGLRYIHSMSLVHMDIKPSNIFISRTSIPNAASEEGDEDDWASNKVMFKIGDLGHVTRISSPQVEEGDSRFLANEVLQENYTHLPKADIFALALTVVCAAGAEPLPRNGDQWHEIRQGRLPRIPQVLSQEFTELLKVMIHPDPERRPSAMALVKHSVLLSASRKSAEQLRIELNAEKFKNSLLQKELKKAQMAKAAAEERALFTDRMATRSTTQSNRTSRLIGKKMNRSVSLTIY
UniProt Q13422, whole entry: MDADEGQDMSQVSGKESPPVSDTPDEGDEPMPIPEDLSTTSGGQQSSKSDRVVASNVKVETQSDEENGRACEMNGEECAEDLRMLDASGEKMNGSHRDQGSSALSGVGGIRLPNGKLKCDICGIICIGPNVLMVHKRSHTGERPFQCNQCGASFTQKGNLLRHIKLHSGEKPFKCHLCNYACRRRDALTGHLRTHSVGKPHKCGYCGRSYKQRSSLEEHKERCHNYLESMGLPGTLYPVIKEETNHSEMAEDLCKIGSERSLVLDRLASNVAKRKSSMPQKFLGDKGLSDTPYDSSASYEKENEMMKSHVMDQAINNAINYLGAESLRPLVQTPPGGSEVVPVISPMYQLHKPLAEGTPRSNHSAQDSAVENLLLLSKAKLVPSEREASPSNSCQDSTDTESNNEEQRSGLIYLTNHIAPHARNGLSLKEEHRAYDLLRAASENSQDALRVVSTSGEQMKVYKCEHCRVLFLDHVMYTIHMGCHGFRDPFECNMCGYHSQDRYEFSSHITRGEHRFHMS
UniProt Q9UKT9, whole entry: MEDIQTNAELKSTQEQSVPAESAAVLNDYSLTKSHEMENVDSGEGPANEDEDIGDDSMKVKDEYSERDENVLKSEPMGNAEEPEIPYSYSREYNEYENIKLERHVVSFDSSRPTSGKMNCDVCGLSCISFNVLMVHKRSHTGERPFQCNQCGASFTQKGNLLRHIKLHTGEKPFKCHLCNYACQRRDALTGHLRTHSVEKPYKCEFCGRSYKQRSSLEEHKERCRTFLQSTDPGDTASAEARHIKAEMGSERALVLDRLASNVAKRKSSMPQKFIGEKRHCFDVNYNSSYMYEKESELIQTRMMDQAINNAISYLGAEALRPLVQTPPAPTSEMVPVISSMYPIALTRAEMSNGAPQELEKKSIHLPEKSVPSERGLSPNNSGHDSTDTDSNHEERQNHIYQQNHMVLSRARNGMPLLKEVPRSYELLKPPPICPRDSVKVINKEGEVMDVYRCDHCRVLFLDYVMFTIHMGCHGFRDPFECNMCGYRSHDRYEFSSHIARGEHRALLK
UniProt Q16531, whole entry partner: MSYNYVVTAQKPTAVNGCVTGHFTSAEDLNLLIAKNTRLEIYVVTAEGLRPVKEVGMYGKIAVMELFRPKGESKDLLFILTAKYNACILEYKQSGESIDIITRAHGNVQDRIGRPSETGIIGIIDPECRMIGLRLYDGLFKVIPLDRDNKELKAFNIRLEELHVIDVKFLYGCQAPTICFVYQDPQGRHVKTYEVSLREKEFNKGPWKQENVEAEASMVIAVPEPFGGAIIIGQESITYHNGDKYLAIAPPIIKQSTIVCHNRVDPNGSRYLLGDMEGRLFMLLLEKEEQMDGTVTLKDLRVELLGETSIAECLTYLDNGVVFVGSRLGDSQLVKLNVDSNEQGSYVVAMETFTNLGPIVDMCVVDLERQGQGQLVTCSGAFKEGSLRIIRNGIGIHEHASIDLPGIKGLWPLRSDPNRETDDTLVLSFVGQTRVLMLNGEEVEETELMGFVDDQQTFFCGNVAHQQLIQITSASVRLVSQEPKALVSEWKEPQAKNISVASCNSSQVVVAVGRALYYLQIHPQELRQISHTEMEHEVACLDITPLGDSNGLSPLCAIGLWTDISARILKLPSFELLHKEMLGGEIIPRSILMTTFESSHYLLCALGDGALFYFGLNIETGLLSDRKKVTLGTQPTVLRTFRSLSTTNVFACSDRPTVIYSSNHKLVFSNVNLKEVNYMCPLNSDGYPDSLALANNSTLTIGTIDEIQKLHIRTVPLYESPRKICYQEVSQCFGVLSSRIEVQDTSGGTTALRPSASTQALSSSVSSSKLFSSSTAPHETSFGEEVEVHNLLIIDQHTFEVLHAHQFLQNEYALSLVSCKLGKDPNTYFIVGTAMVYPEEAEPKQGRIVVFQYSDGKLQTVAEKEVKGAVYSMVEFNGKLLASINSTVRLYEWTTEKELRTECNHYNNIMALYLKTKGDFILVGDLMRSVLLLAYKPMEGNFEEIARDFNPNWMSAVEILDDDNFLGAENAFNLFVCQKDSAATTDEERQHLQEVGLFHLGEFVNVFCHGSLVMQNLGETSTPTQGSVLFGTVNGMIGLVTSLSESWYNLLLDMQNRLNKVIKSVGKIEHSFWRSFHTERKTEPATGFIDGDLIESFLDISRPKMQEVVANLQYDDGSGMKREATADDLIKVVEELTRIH

In patent EP4834897A1, “COMPOUNDS WITH TWO AZAHETEROCYCLES SUBSTITUTED ISOINDOLINONE SKELETON AND USES THEREOF” (dated 2026):

Target: CRBN (Homo sapiens, UniProt Q96SW2)
Experiment: CRBN binding affinity by HTRF (CEREBLON BINDING kit)
Settings: CRBN binding, HTRF, compound at 0.5 µM

Row | Compound | Inhibition Rate at 0.5 µM (%)
1 | CC1(C)CCC(C(=O)N2CCN(C3CCN(CCc4ccc5c(c4)CN(C4CCC(=O)NC4=O)C5=O)CC3(F)F)CC2)=C(c2ccc(Cl)cc2)C1 (stereo not shown) | a6 (60% < a6 ≤ 70%)
2 | CC1(C)CCC(CN2CCN(C3CCN(Cc4cc(F)c5c(c4)CN(C4CCC(=O)NC4=O)C5=O)CC3(F)F)CC2)=C(c2ccc(Cl)cc2)C1 (stereo not shown) | a4 (40% < a4 ≤ 53%)

Same assay, conditions: CRBN binding, HTRF, compound at 2 µM

Row | Compound | Inhibition Rate at 2 µM (%)
3 | CC1(C)CCC(C(=O)N2CCN(C3CCN(CCc4ccc5c(c4)CN(C4CCC(=O)NC4=O)C5=O)CC3(F)F)CC2)=C(c2ccc(Cl)cc2)C1 (stereo not shown) | a8 (80% < a8 ≤100%)
4 | CC1(C)CCC(CN2CCN(C3CCN(Cc4cc(F)c5c(c4)CN(C4CCC(=O)NC4=O)C5=O)CC3(F)F)CC2)=C(c2ccc(Cl)cc2)C1 (stereo not shown) | a7 (70% < a7 ≤80%)

Target: GSPT1 (Homo sapiens, UniProt P15170+Q96SW2)
Experiment: Western blot assay of substrate protein degradation in hPBMCs
Settings: 24 hours treatment, compounds at 50 nM and 500 nM (concentration behind the class not stated)

Row | Compound | substrate protein remaining % (GSPT1)
5 | CC1(C)CCC(C(=O)N2CCN(C3CCN(CCc4ccc5c(c4)CN(C4CCC(=O)NC4=O)C5=O)CC3(F)F)CC2)=C(c2ccc(Cl)cc2)C1 (stereo not shown) | A (0% ≤ substrate protein remaining % ≤ 80%)
6 | CC1(C)CCC(CN2CCN(C3CCN(Cc4cc(F)c5c(c4)CN(C4CCC(=O)NC4=O)C5=O)CC3(F)F)CC2)=C(c2ccc(Cl)cc2)C1 (stereo not shown) | A (0% ≤ substrate protein remaining % ≤ 80%)
7 | CC1(C)CCC(CN2CCN(C3CCN(Cc4cccc5c4CN(C4CCC(=O)NC4=O)C5=O)CC3(F)F)CC2)=C(c2ccc(Cl)cc2)C1 (stereo not shown) | A (0% ≤ substrate protein remaining % ≤ 80%)

Target: IKZF2 (Homo sapiens, UniProt Q96SW2+Q9UKS7)
Experiment: as above
Settings: 24 hours treatment, compounds at 50 nM and 500 nM (concentration behind the class not stated)

Row | Compound | substrate protein remaining % (IKZF2)
8 | CC1(C)CCC(C(=O)N2CCN(C3CCN(CCc4ccc5c(c4)CN(C4CCC(=O)NC4=O)C5=O)CC3(F)F)CC2)=C(c2ccc(Cl)cc2)C1 (stereo not shown) | B (80%< substrate protein remaining %≤ 100%)
9 | CC1(C)CCC(CN2CCN(C3CCN(Cc4cc(F)c5c(c4)CN(C4CCC(=O)NC4=O)C5=O)CC3(F)F)CC2)=C(c2ccc(Cl)cc2)C1 (stereo not shown) | B (80%< substrate protein remaining %≤ 100%)
10 | CC1(C)CCC(CN2CCN(C3CCN(Cc4cccc5c4CN(C4CCC(=O)NC4=O)C5=O)CC3(F)F)CC2)=C(c2ccc(Cl)cc2)C1 (stereo not shown) | B (80%< substrate protein remaining %≤ 100%)

Target: CK1α (Homo sapiens, UniProt P48729+Q96SW2)
Experiment: as above
Settings: 24 hours treatment, compounds at 50 nM and 500 nM (concentration behind the class not stated)

Row | Compound | substrate protein remaining % (CK1a)
11 | CC1(C)CCC(C(=O)N2CCN(C3CCN(CCc4ccc5c(c4)CN(C4CCC(=O)NC4=O)C5=O)CC3(F)F)CC2)=C(c2ccc(Cl)cc2)C1 (stereo not shown) | A (0% ≤ substrate protein remaining % ≤ 80%)
12 | CC1(C)CCC(CN2CCN(C3CCN(Cc4cc(F)c5c(c4)CN(C4CCC(=O)NC4=O)C5=O)CC3(F)F)CC2)=C(c2ccc(Cl)cc2)C1 (stereo not shown) | B (80%< substrate protein remaining %≤ 100%)
13 | CC1(C)CCC(CN2CCN(C3CCN(Cc4cccc5c4CN(C4CCC(=O)NC4=O)C5=O)CC3(F)F)CC2)=C(c2ccc(Cl)cc2)C1 (stereo not shown) | A (0% ≤ substrate protein remaining % ≤ 80%)

Target: WEE1 (Homo sapiens, UniProt P30291+Q96SW2)
Experiment: as above
Settings: 24 hours treatment, compounds at 50 nM and 500 nM (concentration behind the class not stated)

Row | Compound | substrate protein remaining % (WEE1)
14 | CC1(C)CCC(C(=O)N2CCN(C3CCN(CCc4ccc5c(c4)CN(C4CCC(=O)NC4=O)C5=O)CC3(F)F)CC2)=C(c2ccc(Cl)cc2)C1 (stereo not shown) | A (0% ≤ substrate protein remaining % ≤ 80%)
15 | CC1(C)CCC(CN2CCN(C3CCN(Cc4cc(F)c5c(c4)CN(C4CCC(=O)NC4=O)C5=O)CC3(F)F)CC2)=C(c2ccc(Cl)cc2)C1 (stereo not shown) | B (80%< substrate protein remaining %≤ 100%)
16 | CC1(C)CCC(CN2CCN(C3CCN(Cc4cccc5c4CN(C4CCC(=O)NC4=O)C5=O)CC3(F)F)CC2)=C(c2ccc(Cl)cc2)C1 (stereo not shown) | B (80%< substrate protein remaining %≤ 100%)

Target: IKZF1 (Homo sapiens, UniProt Q13422+Q96SW2)
Experiment: as above
Settings: 24 hours treatment, compounds at 50 nM and 500 nM (concentration behind the class not stated)

Row | Compound | substrate protein remaining % (IKZF 1)
17 | CC1(C)CCC(C(=O)N2CCN(C3CCN(CCc4ccc5c(c4)CN(C4CCC(=O)NC4=O)C5=O)CC3(F)F)CC2)=C(c2ccc(Cl)cc2)C1 (stereo not shown) | B (80%< substrate protein remaining %≤ 100%)
18 | CC1(C)CCC(CN2CCN(C3CCN(Cc4cc(F)c5c(c4)CN(C4CCC(=O)NC4=O)C5=O)CC3(F)F)CC2)=C(c2ccc(Cl)cc2)C1 (stereo not shown) | B (80%< substrate protein remaining %≤ 100%)
19 | CC1(C)CCC(CN2CCN(C3CCN(Cc4cccc5c4CN(C4CCC(=O)NC4=O)C5=O)CC3(F)F)CC2)=C(c2ccc(Cl)cc2)C1 (stereo not shown) | B (80%< substrate protein remaining %≤ 100%)

Target: IKZF3 (Homo sapiens, UniProt Q96SW2+Q9UKT9)
Experiment: as above
Settings: 24 hours treatment, compounds at 50 nM and 500 nM (concentration behind the class not stated)

Row | Compound | substrate protein remaining % (IKZF3)
20 | CC1(C)CCC(C(=O)N2CCN(C3CCN(CCc4ccc5c(c4)CN(C4CCC(=O)NC4=O)C5=O)CC3(F)F)CC2)=C(c2ccc(Cl)cc2)C1 (stereo not shown) | B (80%< substrate protein remaining %≤ 100%)
21 | CC1(C)CCC(CN2CCN(C3CCN(Cc4cc(F)c5c(c4)CN(C4CCC(=O)NC4=O)C5=O)CC3(F)F)CC2)=C(c2ccc(Cl)cc2)C1 (stereo not shown) | B (80%< substrate protein remaining %≤ 100%)
22 | CC1(C)CCC(CN2CCN(C3CCN(Cc4cccc5c4CN(C4CCC(=O)NC4=O)C5=O)CC3(F)F)CC2)=C(c2ccc(Cl)cc2)C1 (stereo not shown) | B (80%< substrate protein remaining %≤ 100%)

System: GM-CSF
Experiment: Inflammatory cytokine release from PBMCs induced by PMA + Ionomycin (flow cytometry CBA)
Settings: 0.1 µM, 24 h

Row | Compound | Inhibition Rate (%) GM-CSF
23 | CC1(C)CCC(C(=O)N2CCN(C3CCN(CCc4ccc5c(c4)CN(C4CCC(=O)NC4=O)C5=O)CC3(F)F)CC2)=C(c2ccc(Cl)cc2)C1 (stereo not shown) | IV9 (40% < IV9 ≤ 50%)
24 | CC1(C)CCC(CN2CCN(C3CCN(Cc4cc(F)c5c(c4)CN(C4CCC(=O)NC4=O)C5=O)CC3(F)F)CC2)=C(c2ccc(Cl)cc2)C1 (stereo not shown) | IV9 (40% < IV9 ≤ 50%)
25 | CC1(C)CCC(CN2CCN(C3CCN(Cc4cccc5c4CN(C4CCC(=O)NC4=O)C5=O)CC3(F)F)CC2)=C(c2ccc(Cl)cc2)C1 (stereo not shown) | IV9 (40% < IV9 ≤ 50%)

Same assay, conditions: 1 µM, 24 h

Row | Compound | Inhibition Rate (%) GM-CSF
26 | CC1(C)CCC(C(=O)N2CCN(C3CCN(CCc4ccc5c(c4)CN(C4CCC(=O)NC4=O)C5=O)CC3(F)F)CC2)=C(c2ccc(Cl)cc2)C1 (stereo not shown) | IV9 (40% < IV9 ≤ 50%)
27 | CC1(C)CCC(CN2CCN(C3CCN(Cc4cc(F)c5c(c4)CN(C4CCC(=O)NC4=O)C5=O)CC3(F)F)CC2)=C(c2ccc(Cl)cc2)C1 (stereo not shown) | IV9 (40% < IV9 ≤ 50%)
28 | CC1(C)CCC(CN2CCN(C3CCN(Cc4cccc5c4CN(C4CCC(=O)NC4=O)C5=O)CC3(F)F)CC2)=C(c2ccc(Cl)cc2)C1 (stereo not shown) | IV9 (40% < IV9 ≤ 50%)
